According to US20240082221A1, “COMPOSITIONS AND METHODS FOR THE IDENTIFICATION OF COMPOUNDS THAT PROTECT AGAINST LIPOFUSCIN CYTOTOXICITY” (priority 2021, published 2024):

Tested on: ARPE-19 cells
Conditions: necrosis without light, apoptosis with blue-light
Method: Cell Viability Assay. […] 1× AlamarBlue solution prepared in OptiMEM was used to replace the media supernatant and the plate's fluorescence was determined at 555 nm excitation/585 nm emission with a SpectraMax M (Molecular Devices, CA, USA), after 1 h. […] The exact timing of appearance of far-red (DRAQ7=plasma membrane leakage) and blue (NUC405=caspase 3 activation) fluorescence signals was critical to differentiate apoptosis and necrosis from secondary events, such as membrane damage and generalized proteolytic activation during the late phase of apoptosis and necrosis, respectively.
Real time monitoring of necrotic and apoptotic cell-death. Cell-death assay to study Lipofuscin's dark toxicity was performed. 90% confluent ARPE-19 or hfRPE were incubated overnight in serum free media supplemented with indicated LB concentration. Viability was assessed at 24 hrs by AlamarBlue®, or microscopy with NUC405/DRAQ7. Real time monitoring of necrotic (red) and apoptotic (blue) cell-death was performed by automated fluorescence microscopy. The exact timing of appearance of far-red (DRAQ7=plasma membrane leakage) and blue (NUC405=caspase 3 activation) fluorescence signals was critical to differentiate apoptosis and necrosis from secondary events, such as membrane damage and generalized proteolytic activation during the late phase of apoptosis and necrosis, respectively.

## all-trans-retinal dimers [ATRD]
  potency as inducer of necrosis and apoptosis: less potent inducer of necrosis and apoptosis than A2E
